Hits are enriched below; roughly 2.2% of the tested compounds scored in any of these assays.
FGF22 binding: FGF22 (human) thermal shift binding | recombinant FGF22 thermal shift, SYPRO orange fluorescence; percent of sucrose octasulfate shift, DMSO zero | activity (Tm shift, normalised), % at 9.99 µM | actives 1.5% (n = 340,000);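 active = mean Tm shift, scaled 0 neutral to 100 positive control, at about 1.3% or above, every replicate too, limit read from the data; inconclusive = no clear call, values can overlap the other calls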
UUG fidelity: modulators of start codon recognition fidelity in yeast; S. cerevisiae UUG-firefly luciferase reporter, luminescence/redox ratio; activity score, % at 18.7 µM; 0.13% of 350,000 active;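 active = replicate mean at a twofold rise or more, about +100% in these data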;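 also: firefly luciferase made from a UUG start codon reports start codon fidelity; reporter light over untreated wells divided by growth signal over untreated wells; some hits fall short of that in this replicate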
PDI turbidity: inhibitors of human protein disulfide isomerase. P07237. PDI insulin aggregation turbidity, A650, 90 min. inhibition, % at 10 µM. actives 0.052% (n = 350,000);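 active = mean inhibition across replicates of 30% or more, whatever share of single replicates reach that level; inconclusive = mean inhibition below 30% while every single replicate reaches 30%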
SIRT5 inh: sirtuin-5 (human) deacylase inhibition; inhibition, % at 15 µM; Q9NXA8; Purified SirT5, succinyl-peptide AMC, trypsin-coupled fluorescence; AID 652115; actives 1.1% (n = 330,000); in the data active = inhibition above about 15%; inconclusive = no clear call, values can overlap the other calls
ERp5 inh: ERp5 (human) disulfide isomerase inhibition; Q15084; ERp5 insulin aggregation, absorbance 650 nm, 90 min; inhibition, % at 9.99 µM; actives 0.05% (n = 350,000); AID 651711;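 active = mean replicate inhibition above about 25%, with every replicate also reaching it, limit read from the data, passing the limit was not always enough; inconclusive = only one of those two criteria met; inactive = neither criterion met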
S100A4 MyoIIA: S100A4-myosin IIA interaction inhibition; P26447; S100A4/TAMRA-MyoIIA peptide fluorescence polarization; inhibition, % at 10.7 µM; actives 0.14% (n = 360,000);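 active = mean inhibition of at least 70% across replicates, with every replicate also reaching that level; inconclusive = mean inhibition reaches 70% but some replicates fall short; inactive = mean inhibition below 70%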
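Material: human S100A4 monomer with TAMRA-labelled myosin IIA peptide; buffer or medium: HEPES pH 7.2 with CaCl2, KCl, NaCl, DTT, Triton; compound dosing: one concentration per compound; schedule: 5 min incubation before reading; benchmarks: neutral control DMSO, positive control TFP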
Starred values were filed as active, the others as inactive; u = inconclusive; x = no result given.

[1] C[C@@H]1CN([C@@H](C)CO)C(=O)c2cc(NS(=O)(=O)c3ccccc3)ccc2O[C@@H](C)CCCCO[C@@H]1CN(C)S(=O)(=O)c1ccc(F)cc1
[2] C[C@@H]1CN([C@@H](C)CO)C(=O)c2cc(NS(=O)(=O)c3ccc(F)cc3)ccc2O[C@@H](C)CCCCO[C@H]1CN(C)S(=O)(=O)c1ccccc1
[3] COc1ccc2c3c([nH]c2c1)[C@@H](CO)N(C(=O)NC(C)C)CC31CN(Cc2ccccc2)C1
[4] O=C(C1CCCCC1)N1CC2(C1)[C@H](c1ccccc1)[C@H](CO)N2C(=O)NC1CCCC1
[5] CO[C@H]1CN(C)C(=O)c2ccc(NC(=O)NC(C)C)cc2OC[C@H](C)N(C(=O)NC(C)C)C[C@H]1C
[6] COc1ccc(OC)c(C(=O)COC(=O)CNC(=O)c2ccccc2)c1
[7] COc1ccc(C(=O)NCC(=O)NCC(=O)OCC(=O)c2ccc(C)cc2)cc1
[8] COc1ccc(-n2c(SCC(=O)O)nc3sc4c(c3c2=O)CCC4)cc1
assay / compound | 1 | 2 | 3 | 4 | 5 | 6 | 7 | 8
FGF22 binding | 0 | 0 | 0 | x | 0 | 0 | 0 | 0
UUG fidelity | -9 | -2 | x | x | 9 | x | 6 | -19
PDI turbidity | x | x | x | x | x | 4 | 1 | 2
SIRT5 inh | 22* | -1 | 3 | x | -4 | 15* | -3 | 1
ERp5 inh | -2 | 2 | 1 | -3 | -5 | 2 | 3 | 4
S100A4 MyoIIA | -1 | -1 | 24 | 1 | 52 | 1 | -3 | -12

[9] COc1ccc(-n2c(SCC(N)=O)nc3sc4c(c3c2=O)CCC4)cc1
[10] CCCNC(=O)Cn1c(-c2ccc(F)cc2)cc(C(=O)OCC)c1C
[11] CCC(C)NC(=O)CCn1c(-c2ccc(F)cc2)cc(C(C)=O)c1C (stereo unspecified)
[12] CC(=O)c1cc(-c2ccc(F)cc2)n(CCC(=O)NC(C)(C)C)c1C
[13] CCOC(=O)c1cc(-c2ccc(F)cc2)n(CC(=O)NC(C)CC)c1C (stereo unspecified)
[14] Cc1ccc(C(=O)COC(=O)c2ccc3c(c2)C(=O)N(c2cccc4ncccc24)C3=O)cc1
[15] O=C(COC(=O)c1ccc2c(c1)C(=O)N(c1cccc3ncccc13)C2=O)c1ccc(Cl)cc1
[16] CCC(C)C(=O)Nc1ccc([N+](=O)[O-])cc1OC (stereo unspecified)
assay / compound | 9 | 10 | 11 | 12 | 13 | 14 | 15 | 16
FGF22 binding | 43* | 43* | 0 | 0 | 43* | 0 | 44* | 43*
UUG fidelity | -11 | x | x | x | x | x | -50 | 5
PDI turbidity | 8 | u | -10 | -12 | -1 | 10 | -1 | 2
SIRT5 inh | -2 | 0 | -3 | 20* | -5 | 18* | -2 | -1
ERp5 inh | 4 | 3 | 3 | 7 | 0 | 4 | 4 | -5
S100A4 MyoIIA | -5 | -1 | 4 | -5 | 1 | 7 | 1 | 0

[17] O=C(C[C@@H]1CC[C@@H](NS(=O)(=O)c2ccccc2)[C@H](CO)O1)N1CCN(c2ccccc2)CC1
[18] CC12CCCC(C(C#N)C(N)=O)(C1)NC(=O)C2C#N (stereo unspecified)
[19] CCOC(=O)N1CCN(C2=NC3(CCCCC3)C(C#N)C(=O)N2)CC1 (stereo unspecified)
[20] O=C(C[C@H]1C=C[C@H](NC(=O)c2ccc(F)cc2)[C@H](CO)O1)NCc1ccncn1
[21] COc1cccc(NC(=O)N[C@@H]2C=C[C@@H](CC(=O)NCc3ccncn3)O[C@@H]2CO)c1
[22] C=CCNC(=O)CN1CCC(c2nc3cc(C)c(C)cc3[nH]2)CC1
[23] O=C(Nc1cccc(F)c1)N1CCCCN2[C@@H](CO)[C@H](c3ccc(C#Cc4cccnc4)cc3)[C@@H]2C1
[24] OCc1ccccc1-c1cnc2cccnn12
assay / compound | 17 | 18 | 19 | 20 | 21 | 22 | 23 | 24
FGF22 binding | x | 0 | x | -1 | -1 | 0 | -1 | 55*
UUG fidelity | x | -9 | -19 | 9 | 15 | 5 | -6 | 4
PDI turbidity | x | 6 | 1 | x | x | 3 | x | -2
SIRT5 inh | 2 | 20* | x | 7 | 5 | 18* | 0 | x
ERp5 inh | -1 | 2 | x | -1 | -1 | 2 | 0 | 5
S100A4 MyoIIA | 4 | 2 | x | 116* | 90* | 2 | 1 | -2

[25] O=C(NCCO)c1ccc(-c2cnc3cccnn23)cc1
[26] CC(CC(=O)N1CCN(c2ccc(C(F)(F)F)cn2)CC1)n1ccnc1 (stereo unspecified)
[27] O=C(OCC1OC(n2cc(Br)c(=O)[nH]c2=O)C(Br)C1O)c1ccccc1 (stereo unspecified)
[28] Cc1cn(C2OC(COC(=O)c3ccccc3)C(O)C2Cl)c(=O)[nH]c1=O (stereo unspecified)
[29] C[C@H](CO)N1C[C@H](C)[C@@H](CN(C)CC2CC2)Oc2cc(C#CC(C)(C)O)ccc2S1(=O)=O
[30] Cc1cccn2c(=O)c(C=O)c(Sc3ncccn3)nc12
[31] Cc1cccn2c(=O)c(C=O)c(Cl)nc12
[32] CN1C[C@@H]2[C@H](c3ccccc31)[C@H](CO)N2C(=O)Nc1ccccc1Cl
assay / compound | 25 | 26 | 27 | 28 | 29 | 30 | 31 | 32
FGF22 binding | 0 | 43* | 1 | 43* | 0 | 43* | 0 | 0
UUG fidelity | -9 | x | 2 | 42 | 6 | x | x | -15
PDI turbidity | -7 | 12 | -3 | 1 | x | 1 | -1 | x
SIRT5 inh | -50 | -10 | -3 | 1 | -2 | -1 | -2 | 2
ERp5 inh | 3 | -4 | 3 | -7 | -1 | -6 | -8 | 2
S100A4 MyoIIA | -7 | -3 | 1 | 2 | -12 | -2 | -5 | -7

Brought forward from above: 4 entries, followed by the next part.
[29] C[C@H](CO)N1C[C@H](C)[C@@H](CN(C)CC2CC2)Oc2cc(C#CC(C)(C)O)ccc2S1(=O)=O
[30] Cc1cccn2c(=O)c(C=O)c(Sc3ncccn3)nc12
[31] Cc1cccn2c(=O)c(C=O)c(Cl)nc12
[32] CN1C[C@@H]2[C@H](c3ccccc31)[C@H](CO)N2C(=O)Nc1ccccc1Cl
[33] O=C(Cc1cccnc1)N1CC[C@H]2[C@H](CO)Nc3ccc(C#Cc4cccc(F)c4)cc3[C@H]21
[34] CC1(C)CC(=O)C=C(c2ccccc2-c2ccc3cc[nH]c3c2)C1=O
[35] C[C@H](CO)N1C[C@H](C)[C@@H](CN(C)S(=O)(=O)c2ccccc2)OCCCC[C@H](C)Oc2ccc(NS(=O)(=O)c3ccc(F)cc3)cc2C1=O
[36] Cc1cccc(NC(=S)NC(=O)/C=C/c2ccco2)c1
[37] CCn1c(/C=C/c2ccccc2)nc2ccccc2c1=O
[38] CCn1c(/C=C/c2ccc(F)cc2)nc2ccccc2c1=O
[39] O=C(C[C@@H]1CC[C@H]2[C@@H](COC[C@@H](O)CN2Cc2ccccc2)O1)N[C@H]1CCN(Cc2ccccc2)C1
[40] COc1ccc(CNC(=O)/C(C)=C\C(=O)O)cc1
assay / compound | 29 | 30 | 31 | 32 | 33 | 34 | 35 | 36 | 37 | 38 | 39 | 40
FGF22 binding | 0 | 43* | 0 | 0 | x | 43* | 0 | 1.4* | 44* | 0 | 0 | 43*
UUG fidelity | 6 | x | x | -15 | x | -1 | -2 | -18 | 1 | -14 | -5 | x
PDI turbidity | x | 1 | -1 | x | x | 5 | x | 7 | 9 | -4 | x | 2
SIRT5 inh | -2 | -1 | -2 | 2 | 1 | x | 3 | 0 | 0 | -3 | 0 | -1
ERp5 inh | -1 | -6 | -8 | 2 | 3 | 10 | -2 | 0 | 6 | 2 | -1 | -1
S100A4 MyoIIA | -12 | -2 | -5 | -7 | 39 | -3 | 68 | -8 | -3 | 4 | -3 | -1

[41] O=S1(=O)N[C@@H](Cc2ccccc2)COc2cccc(N3CCCCC3)c21
[42] O=S1(=O)N[C@@H](Cc2ccccc2)COc2cccc(N3CCCC3)c21
[43] Cn1cccc1C(=O)C(=O)Nc1ccccc1
[44] Cn1cccc1C(=O)C(=O)Nc1ccccc1C(F)(F)F
[45] COc1ccc(-c2cn(CC(=O)N3CCC4(CC3)C(=O)NCN4c3ccccc3)nn2)cc1OC
[46] COc1ccc(-n2nnc3c(=O)n(CC(=O)N4CCCCC4)cnc32)cc1
assay / compound | 41 | 42 | 43 | 44 | 45 | 46
FGF22 binding | 0 | 0 | x | 43* | 0 | 0
UUG fidelity | x | x | x | x | x | 3
PDI turbidity | x | x | 1 | 9 | x | x
SIRT5 inh | 0 | 23* | x | -4 | 3 | 15*
ERp5 inh | 5 | 3 | x | -1 | -1 | 1
S100A4 MyoIIA | -2 | -2 | x | -5 | 4 | -1

Compound activity: PubChem BioAssay, Broad Institute
